Experimental data from article PMC9743128, “Phenotype-based screening rediscovered benzopyran-embedded microtubule inhibitors as anti-neuroinflammatory agents by modulating the tubulin–p65 interaction” (Experimental & Molecular Medicine, 2022).

Test system: α-tubulin monomers in RAW264.7 cells
Assay: Tubulin monomer/polymer isolation and western blot
Assay type: cell-based, murine
Conditions: 10 μM for 6 h

COc1cc2c(c(OC)c1OC)-c1ccc(OC)c(=O)cc1[C@@H](NC(C)=O)CC2 [Colchicine]
Total α-tubulin monomers: increased the total α-tubulin monomers
